Data from ChEMBL document CHEMBL4251680, “Catecholic Isoquinolines from Portulaca oleracea and Their Anti-inflammatory and β2-Adrenergic Receptor Agonist Activity” (J Nat Prod, 2018).

Each compound was assayed on RAW264.7 (assay: Antiinflammatory activity in mouse RAW264.7 cells assessed as inhibition of LPS-induced nitric oxide production measured after 24 hrs by Griess assay).
Format: functional, cell-based
For `CC(C)C[C@H]1NCCc2cc(O)c(O)cc21`, the inhibition was “Dose-dependent effect”.
`CCOC(=O)CC[C@@H]1NCCc2cc(O)c(O)cc21` was tested, and the inhibition was “Dose-dependent effect”.
With `O=C1c2cc(O)c(O)cc2CCn2cccc21` the inhibition was “Dose-dependent effect”.
`Oc1cc2c(cc1O)C(c1ccco1)=NCC2` was tested, and the inhibition was “Dose-dependent effect”.
In the case of `Oc1cc2c(cc1O)CCN=C2`, the inhibition is reported as “Dose-dependent effect”.
With `OCc1ccc(C2=NCCc3cc(O)c(O)cc32)o1` the inhibition was “Dose-dependent effect”.
`O=C1NCCc2cc(O)c(O)cc21` was tested, and the inhibition was “Dose-dependent effect”.
In the case of `Oc1cc2c(cc1O)[C@@H](Cc1ccccc1)NCC2`, the inhibition is reported as “Dose-dependent effect”.
For `O=C1CC[C@H]2c3cc(O)c(O)cc3CCN12`, the inhibition was “Dose-dependent effect”.
For `CC1=NCCc2cc(O)c(O)cc21`, the inhibition was “Dose-dependent effect”.
`Oc1cc2c(cc1O)CC[N+](Cc1ccco1)=C2` was tested, and the inhibition was “Dose-dependent effect”.
`C[C@@H]1NCCc2cc(O)c(O)cc21` was tested, and the inhibition was “Dose-dependent effect”.
With `NCCc1ccc(O)c(O)c1S(=O)(=O)O` the inhibition was “Dose-dependent effect”.
